Ki data for one molecule are collected here from BindingDB's records for doi:10.1016/j.bmc.2009.07.069 (Human Biomolecular Research Institute, 2009).

Amino acid sequences for entries named in this document (tags omitted).
UniProt P35372, whole entry: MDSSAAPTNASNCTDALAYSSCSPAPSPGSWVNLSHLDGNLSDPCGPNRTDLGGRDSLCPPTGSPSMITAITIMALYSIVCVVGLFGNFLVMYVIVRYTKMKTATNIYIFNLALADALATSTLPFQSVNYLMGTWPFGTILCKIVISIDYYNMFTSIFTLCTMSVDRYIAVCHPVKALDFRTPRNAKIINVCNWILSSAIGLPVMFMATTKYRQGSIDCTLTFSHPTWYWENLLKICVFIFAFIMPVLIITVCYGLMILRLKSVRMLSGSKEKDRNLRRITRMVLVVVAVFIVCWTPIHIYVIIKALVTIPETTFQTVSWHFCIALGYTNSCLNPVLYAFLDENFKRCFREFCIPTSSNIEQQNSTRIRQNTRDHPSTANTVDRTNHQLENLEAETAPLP

pKi: −log10 of the molar value. Where only a bound is given, the exact number is not on record here.

The assay addresses Mu-type opioid receptor (Homo sapiens, UniProt P35372).

A word on the pKi: it is the Ki on a negative log10 scale, so that one unit is a factor of ten. Low readings indicate a high Ki, high ones a low Ki. Take `O=C(N[C@@H]1CC[C@@]2(O)[C@H]3Cc4ccc(O)c5c4[C@@]2(CCN3CC2CC2)[C@H]1O5)c1ccc(Br)cc1` [17-Cyclopropylmethyl-3,14beta-dihydroxy-4,5alpha-epoxy-6beta-[(4'-bromo)benzamido]morphinan-oxalate]: the pKi was below 5.00.
